Target: Bromodomain-containing protein 2 (Homo sapiens, UniProt P25440)
Assay: Binding affinity to human recombinant BRD2 BD2 (349 to 460 residues) by fluorescence polarization assay

Chains of the proteins cited; added tags and fusions are not shown.
UniProt P25440, whole entry: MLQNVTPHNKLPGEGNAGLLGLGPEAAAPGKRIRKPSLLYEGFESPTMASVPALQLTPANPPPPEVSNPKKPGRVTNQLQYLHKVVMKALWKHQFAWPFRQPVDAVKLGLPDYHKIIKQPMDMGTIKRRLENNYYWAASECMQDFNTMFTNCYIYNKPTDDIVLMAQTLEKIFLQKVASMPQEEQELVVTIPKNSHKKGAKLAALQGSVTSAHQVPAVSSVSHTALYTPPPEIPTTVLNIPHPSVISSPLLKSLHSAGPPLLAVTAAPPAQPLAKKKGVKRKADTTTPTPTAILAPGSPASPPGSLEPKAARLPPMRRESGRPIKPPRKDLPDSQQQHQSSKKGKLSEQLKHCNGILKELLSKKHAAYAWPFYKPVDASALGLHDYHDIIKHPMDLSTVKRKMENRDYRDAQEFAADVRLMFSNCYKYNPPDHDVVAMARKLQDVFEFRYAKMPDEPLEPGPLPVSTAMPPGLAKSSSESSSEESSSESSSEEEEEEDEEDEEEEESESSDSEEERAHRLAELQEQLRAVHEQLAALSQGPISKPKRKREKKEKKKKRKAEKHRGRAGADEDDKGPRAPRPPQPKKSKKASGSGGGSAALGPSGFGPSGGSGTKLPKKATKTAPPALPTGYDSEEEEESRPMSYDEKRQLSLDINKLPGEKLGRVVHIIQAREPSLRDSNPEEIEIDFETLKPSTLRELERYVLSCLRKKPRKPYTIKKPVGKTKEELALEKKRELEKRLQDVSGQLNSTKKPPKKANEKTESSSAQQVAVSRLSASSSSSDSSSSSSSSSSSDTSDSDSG

Cc1sc2c(c1C)C(c1ccc(Cl)cc1)=N[C@@H](CC(=O)Nc1ccc(O)cc1)c1nnc(C)n1-2 [BIRABRESIB]
Ki: 10.3 nM
